From publication PMC6646794 (Biochimica et Biophysica Acta. Molecular Cell Research, 2019)

Tested on: NudT9H domain
Experiment: Thermal unfolding of NudT9H by nDSF
Type: binding, human
Settings: nDSF (F350/F330), NudT9H 0.2 mg/ml in presence of ADPR; 1 °C/min; 25 mM Tris pH 7.4, 150 mM NaCl, 2 mM CaCl2, 10% glycerol

Adenosine diphosphate ribose [ADPR]
Tm of NudT9H in the presence of ADPR: about 42 °C
